Test results: publication PMC10009755, “Discovery and Characterization of BAY-805, a Potent and Selective Inhibitor of Ubiquitin-Specific Protease USP21” (Journal of Medicinal Chemistry, 2023)

Sequences of proteins named here, by UniProt entry; tags and fusion partners are left off. A change or cut given only in a name is not applied to a line headed by its entry. Residues count along the entry.
UniProt Q8N568: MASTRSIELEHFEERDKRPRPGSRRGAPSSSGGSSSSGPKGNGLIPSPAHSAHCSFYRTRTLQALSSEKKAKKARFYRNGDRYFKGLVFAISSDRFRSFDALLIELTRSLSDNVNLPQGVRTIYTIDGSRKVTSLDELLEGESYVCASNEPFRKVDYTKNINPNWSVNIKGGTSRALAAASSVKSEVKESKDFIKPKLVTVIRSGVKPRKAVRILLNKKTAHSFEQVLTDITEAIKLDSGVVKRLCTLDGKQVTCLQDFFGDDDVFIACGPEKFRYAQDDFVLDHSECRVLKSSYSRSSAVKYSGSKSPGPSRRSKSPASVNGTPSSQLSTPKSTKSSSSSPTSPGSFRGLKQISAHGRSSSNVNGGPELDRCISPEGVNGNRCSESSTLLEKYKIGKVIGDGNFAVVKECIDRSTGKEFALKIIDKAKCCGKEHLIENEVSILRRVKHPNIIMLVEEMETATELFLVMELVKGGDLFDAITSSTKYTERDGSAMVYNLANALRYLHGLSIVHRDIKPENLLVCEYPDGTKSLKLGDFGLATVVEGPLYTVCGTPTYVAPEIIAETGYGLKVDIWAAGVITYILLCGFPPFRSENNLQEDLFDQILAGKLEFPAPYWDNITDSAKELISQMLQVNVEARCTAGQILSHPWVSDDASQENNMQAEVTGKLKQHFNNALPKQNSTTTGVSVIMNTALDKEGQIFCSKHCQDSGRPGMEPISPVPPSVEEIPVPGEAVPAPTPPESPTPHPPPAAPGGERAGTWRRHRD
UniProt Q9HAZ1: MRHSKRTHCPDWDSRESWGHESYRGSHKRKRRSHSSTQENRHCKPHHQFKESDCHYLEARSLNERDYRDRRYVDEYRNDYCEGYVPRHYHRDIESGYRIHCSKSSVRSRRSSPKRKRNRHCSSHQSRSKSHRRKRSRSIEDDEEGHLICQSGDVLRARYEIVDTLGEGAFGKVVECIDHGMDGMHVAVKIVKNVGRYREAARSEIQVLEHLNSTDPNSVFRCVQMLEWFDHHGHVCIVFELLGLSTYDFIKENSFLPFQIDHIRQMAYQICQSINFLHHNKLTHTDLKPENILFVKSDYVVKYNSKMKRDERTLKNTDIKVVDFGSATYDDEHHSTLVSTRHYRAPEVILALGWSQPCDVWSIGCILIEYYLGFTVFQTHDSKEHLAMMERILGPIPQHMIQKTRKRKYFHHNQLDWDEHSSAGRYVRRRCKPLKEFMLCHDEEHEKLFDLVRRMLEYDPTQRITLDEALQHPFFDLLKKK
UniProt P49841: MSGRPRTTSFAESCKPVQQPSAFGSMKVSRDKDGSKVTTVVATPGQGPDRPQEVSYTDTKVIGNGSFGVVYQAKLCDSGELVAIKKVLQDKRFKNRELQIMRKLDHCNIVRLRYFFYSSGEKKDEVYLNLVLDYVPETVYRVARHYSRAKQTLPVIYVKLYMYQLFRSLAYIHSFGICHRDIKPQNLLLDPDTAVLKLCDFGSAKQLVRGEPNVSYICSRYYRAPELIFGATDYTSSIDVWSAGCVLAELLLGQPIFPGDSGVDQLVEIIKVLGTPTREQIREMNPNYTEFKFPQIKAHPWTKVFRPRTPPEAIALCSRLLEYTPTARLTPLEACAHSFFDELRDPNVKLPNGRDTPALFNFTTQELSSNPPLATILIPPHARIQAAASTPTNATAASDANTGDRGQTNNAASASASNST
UniProt P51957: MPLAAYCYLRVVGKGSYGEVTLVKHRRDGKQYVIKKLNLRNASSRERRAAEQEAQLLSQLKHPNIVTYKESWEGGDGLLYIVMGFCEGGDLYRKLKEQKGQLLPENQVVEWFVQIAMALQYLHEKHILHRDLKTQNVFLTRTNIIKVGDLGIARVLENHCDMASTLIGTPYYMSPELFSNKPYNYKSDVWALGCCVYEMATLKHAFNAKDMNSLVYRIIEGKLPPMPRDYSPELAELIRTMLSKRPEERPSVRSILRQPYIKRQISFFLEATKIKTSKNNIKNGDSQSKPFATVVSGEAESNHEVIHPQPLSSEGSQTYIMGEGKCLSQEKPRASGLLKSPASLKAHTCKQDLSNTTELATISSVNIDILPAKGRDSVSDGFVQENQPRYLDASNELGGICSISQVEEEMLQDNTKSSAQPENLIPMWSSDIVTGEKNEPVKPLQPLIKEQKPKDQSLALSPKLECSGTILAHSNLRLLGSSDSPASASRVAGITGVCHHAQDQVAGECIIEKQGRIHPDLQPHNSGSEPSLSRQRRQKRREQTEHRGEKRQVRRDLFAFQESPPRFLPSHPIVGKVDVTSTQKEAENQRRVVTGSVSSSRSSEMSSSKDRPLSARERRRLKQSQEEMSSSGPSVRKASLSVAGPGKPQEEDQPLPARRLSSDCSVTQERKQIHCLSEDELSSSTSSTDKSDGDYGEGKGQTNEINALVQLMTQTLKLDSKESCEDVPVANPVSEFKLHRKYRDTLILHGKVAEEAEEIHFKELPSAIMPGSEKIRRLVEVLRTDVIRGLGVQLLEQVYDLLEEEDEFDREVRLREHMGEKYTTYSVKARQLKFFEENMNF
UniProt P37288, whole entry: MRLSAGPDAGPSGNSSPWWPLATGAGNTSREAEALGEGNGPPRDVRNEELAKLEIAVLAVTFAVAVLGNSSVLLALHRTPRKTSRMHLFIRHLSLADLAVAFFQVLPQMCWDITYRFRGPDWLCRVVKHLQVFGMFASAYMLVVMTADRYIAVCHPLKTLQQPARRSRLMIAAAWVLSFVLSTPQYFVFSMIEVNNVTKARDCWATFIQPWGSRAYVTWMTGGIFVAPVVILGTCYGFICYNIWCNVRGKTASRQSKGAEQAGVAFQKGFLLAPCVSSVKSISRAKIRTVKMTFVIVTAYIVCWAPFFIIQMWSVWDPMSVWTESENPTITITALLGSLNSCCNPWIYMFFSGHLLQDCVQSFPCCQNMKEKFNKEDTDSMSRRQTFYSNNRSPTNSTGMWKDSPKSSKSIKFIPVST
UniProt Q9UQB9: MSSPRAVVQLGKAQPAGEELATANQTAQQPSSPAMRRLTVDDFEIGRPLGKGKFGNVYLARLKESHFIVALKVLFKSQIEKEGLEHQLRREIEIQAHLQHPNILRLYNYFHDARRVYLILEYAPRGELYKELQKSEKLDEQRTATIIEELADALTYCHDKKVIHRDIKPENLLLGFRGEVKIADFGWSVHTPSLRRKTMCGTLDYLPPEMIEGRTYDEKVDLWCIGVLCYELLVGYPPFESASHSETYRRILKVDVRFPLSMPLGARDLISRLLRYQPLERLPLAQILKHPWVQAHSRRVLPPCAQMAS
UniProt Q5VVQ6: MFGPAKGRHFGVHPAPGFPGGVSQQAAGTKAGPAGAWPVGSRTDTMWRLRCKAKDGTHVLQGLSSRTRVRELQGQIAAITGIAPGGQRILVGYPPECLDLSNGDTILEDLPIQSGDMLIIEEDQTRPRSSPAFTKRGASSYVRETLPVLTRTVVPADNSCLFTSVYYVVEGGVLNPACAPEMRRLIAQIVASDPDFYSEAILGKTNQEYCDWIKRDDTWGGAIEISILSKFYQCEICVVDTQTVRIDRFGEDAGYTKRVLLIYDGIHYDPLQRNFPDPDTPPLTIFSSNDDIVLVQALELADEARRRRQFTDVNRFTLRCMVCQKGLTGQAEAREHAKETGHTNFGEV
UniProt P68400, whole entry: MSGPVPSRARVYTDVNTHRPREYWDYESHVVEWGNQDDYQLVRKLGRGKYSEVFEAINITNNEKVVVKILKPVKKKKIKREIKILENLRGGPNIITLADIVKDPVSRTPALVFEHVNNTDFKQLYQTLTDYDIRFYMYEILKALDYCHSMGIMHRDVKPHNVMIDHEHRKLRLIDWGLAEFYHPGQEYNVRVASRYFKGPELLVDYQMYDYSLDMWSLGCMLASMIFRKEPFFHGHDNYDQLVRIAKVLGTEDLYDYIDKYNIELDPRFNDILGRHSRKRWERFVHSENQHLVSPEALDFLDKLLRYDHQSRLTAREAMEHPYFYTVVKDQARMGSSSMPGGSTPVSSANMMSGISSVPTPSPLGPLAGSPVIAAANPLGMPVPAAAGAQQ
UniProt P17948, 27-1338: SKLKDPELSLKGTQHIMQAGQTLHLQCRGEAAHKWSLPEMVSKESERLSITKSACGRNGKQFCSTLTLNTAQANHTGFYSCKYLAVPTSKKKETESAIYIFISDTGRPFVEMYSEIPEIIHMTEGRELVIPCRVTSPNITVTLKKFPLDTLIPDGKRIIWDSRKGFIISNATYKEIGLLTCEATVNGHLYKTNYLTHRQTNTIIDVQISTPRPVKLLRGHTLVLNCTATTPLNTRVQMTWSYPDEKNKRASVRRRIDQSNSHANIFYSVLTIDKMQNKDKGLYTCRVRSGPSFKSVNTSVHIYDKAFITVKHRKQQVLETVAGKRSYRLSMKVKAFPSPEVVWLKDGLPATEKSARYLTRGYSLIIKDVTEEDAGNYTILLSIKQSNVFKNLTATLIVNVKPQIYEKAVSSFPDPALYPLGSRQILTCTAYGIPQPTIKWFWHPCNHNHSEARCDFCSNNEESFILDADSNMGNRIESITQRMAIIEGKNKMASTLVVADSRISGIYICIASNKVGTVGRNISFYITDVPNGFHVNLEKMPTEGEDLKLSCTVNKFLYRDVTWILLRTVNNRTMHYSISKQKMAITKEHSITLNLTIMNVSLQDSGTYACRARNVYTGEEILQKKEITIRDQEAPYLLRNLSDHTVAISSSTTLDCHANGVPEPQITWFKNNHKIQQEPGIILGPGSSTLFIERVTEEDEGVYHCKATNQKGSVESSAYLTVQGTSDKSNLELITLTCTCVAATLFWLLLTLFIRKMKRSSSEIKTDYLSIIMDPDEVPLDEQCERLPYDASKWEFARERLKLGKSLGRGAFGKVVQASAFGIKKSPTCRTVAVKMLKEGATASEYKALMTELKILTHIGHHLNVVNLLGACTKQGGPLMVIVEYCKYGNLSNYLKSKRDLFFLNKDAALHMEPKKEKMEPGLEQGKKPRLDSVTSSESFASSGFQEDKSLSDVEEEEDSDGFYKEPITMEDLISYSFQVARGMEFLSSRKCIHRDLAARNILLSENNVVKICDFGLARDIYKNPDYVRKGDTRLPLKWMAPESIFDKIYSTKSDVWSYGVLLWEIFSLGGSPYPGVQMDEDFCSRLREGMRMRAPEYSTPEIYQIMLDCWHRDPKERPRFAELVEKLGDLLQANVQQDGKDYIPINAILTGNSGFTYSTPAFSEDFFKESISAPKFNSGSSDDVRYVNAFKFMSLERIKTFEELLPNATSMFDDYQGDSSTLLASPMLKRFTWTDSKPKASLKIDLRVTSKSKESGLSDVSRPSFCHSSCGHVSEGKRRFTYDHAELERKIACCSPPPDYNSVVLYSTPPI
UniProt Q86Z02: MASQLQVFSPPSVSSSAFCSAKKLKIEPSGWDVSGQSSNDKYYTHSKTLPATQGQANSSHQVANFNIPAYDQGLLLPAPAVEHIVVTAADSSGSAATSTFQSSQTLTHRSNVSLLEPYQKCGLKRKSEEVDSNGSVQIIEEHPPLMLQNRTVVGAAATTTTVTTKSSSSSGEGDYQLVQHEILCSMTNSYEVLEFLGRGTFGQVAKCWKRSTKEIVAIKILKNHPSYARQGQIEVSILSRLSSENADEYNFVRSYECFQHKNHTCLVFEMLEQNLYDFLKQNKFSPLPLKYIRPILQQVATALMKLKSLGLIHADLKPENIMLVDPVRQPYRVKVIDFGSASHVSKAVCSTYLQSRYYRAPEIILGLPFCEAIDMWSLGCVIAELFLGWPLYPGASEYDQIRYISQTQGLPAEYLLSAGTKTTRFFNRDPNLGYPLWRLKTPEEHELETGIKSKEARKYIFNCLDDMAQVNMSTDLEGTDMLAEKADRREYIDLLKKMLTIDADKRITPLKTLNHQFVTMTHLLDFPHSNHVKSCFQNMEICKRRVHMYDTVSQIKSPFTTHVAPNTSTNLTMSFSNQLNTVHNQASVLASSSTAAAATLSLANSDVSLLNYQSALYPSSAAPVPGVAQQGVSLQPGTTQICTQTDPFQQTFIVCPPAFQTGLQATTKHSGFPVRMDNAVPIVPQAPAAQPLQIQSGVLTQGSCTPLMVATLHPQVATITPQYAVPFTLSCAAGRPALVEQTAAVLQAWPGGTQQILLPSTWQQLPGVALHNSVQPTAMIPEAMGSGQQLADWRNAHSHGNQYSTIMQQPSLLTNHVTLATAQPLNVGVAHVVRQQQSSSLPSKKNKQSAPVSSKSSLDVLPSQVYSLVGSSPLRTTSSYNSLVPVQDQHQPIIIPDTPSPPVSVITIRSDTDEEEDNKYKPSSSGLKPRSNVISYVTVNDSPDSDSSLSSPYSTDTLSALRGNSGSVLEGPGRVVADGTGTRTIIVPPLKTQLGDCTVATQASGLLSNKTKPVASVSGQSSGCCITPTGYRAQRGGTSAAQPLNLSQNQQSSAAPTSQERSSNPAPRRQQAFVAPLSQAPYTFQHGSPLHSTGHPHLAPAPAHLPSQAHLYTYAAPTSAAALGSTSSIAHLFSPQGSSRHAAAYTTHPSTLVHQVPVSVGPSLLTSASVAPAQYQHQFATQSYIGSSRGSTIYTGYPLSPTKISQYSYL

Legend:
[1] = molecular target: USP5 (Homo sapiens, UniProt P45974); experiment: biochemical; settings: read-out: Activity (% Control)
[2] = molecular target: Tie2(h) (Homo sapiens, UniProt Q02763); experiment: biochemical
[3] = molecular target: Rsk2(h) (Homo sapiens, UniProt P51812); experiment: biochemical
[4] = molecular target: Abl(h) (Homo sapiens, UniProt P00519); experiment: biochemical
[5] = molecular target: DCAMKL2(h) (Homo sapiens, UniProt Q8N568); experiment: biochemical
[6] = molecular target: NEK11(h) (Homo sapiens, UniProt Q8NG66); experiment: biochemical
[7] = molecular target: GRK7(h) (Homo sapiens, UniProt Q8WTQ7); experiment: biochemical
[8] = test system: A549; experiment: cells; settings: Homo sapiens, A549, 72 h, read-out: antiproliferative effect
[9] = molecular target: Pim-1(h) (Homo sapiens, UniProt P11309); experiment: biochemical
[10] = molecular target: GRK1(h) (Homo sapiens, UniProt Q15835); experiment: biochemical
[11] = molecular target: MSK2(h) (Homo sapiens, UniProt O75676); experiment: biochemical
[12] = molecular target: CLK4(h) (Homo sapiens, UniProt Q9HAZ1); experiment: biochemical
[13] = molecular target: TTBK1(h) (Homo sapiens, UniProt Q5TCY1); experiment: biochemical
[14] = molecular target: KDR(h) (Homo sapiens, UniProt P35968); experiment: biochemical
[15] = molecular target: GSK3beta(h) (Homo sapiens, UniProt P49841); experiment: biochemical
[16] = molecular target: CLK3(h) (Homo sapiens, UniProt P49761); experiment: biochemical
[17] = molecular target: LIMK1(h) (Homo sapiens, UniProt P53667); experiment: biochemical
[18] = molecular target: MRCKgamma(h) (Homo sapiens, UniProt Q6DT37); experiment: biochemical
[19] = molecular target: Tec(h) activated (Homo sapiens, UniProt P42680); experiment: biochemical
[20] = molecular target: NEK4(h) (Homo sapiens, UniProt P51957); experiment: biochemical
[21] = molecular target: ICK(h) (Homo sapiens, UniProt Q9UPZ9); experiment: biochemical
[22] = molecular target: Histamine H2 (Homo sapiens, UniProt P25021); experiment: biochemical; settings: read-out: % Inh.
[23] = molecular target: MKK3(h) (Homo sapiens, UniProt P46734); experiment: biochemical
[24] = molecular target: Vasopressin V1A (Homo sapiens, UniProt P37288); experiment: biochemical; settings: read-out: % Inh.
[25] = molecular target: FGFR2(h) (Homo sapiens, UniProt P21802); experiment: biochemical
[26] = molecular target: Aurora-C(h) (Homo sapiens, UniProt Q9UQB9); experiment: biochemical
[27] = molecular target: OTU1 (Homo sapiens, UniProt Q5VVQ6); experiment: biochemical; settings: read-out: Activity (% Control)
[28] = molecular target: OSR1(h) (Homo sapiens, UniProt O95747); experiment: biochemical
[29] = molecular target: Hck(h) activated (Homo sapiens, UniProt P08631); experiment: biochemical
[30] = molecular target: CK2(h) (Homo sapiens, UniProt P68400); experiment: biochemical
[31] = molecular target: Flt1(h) (Homo sapiens, UniProt P17948); experiment: biochemical
[32] = molecular target: CaMKIIalpha(h) (Homo sapiens, UniProt Q9UQM7); experiment: biochemical
[33] = molecular target: Transporter, Serotonin (5-Hydroxytryptamine) (SERT) (Homo sapiens, UniProt P31645); experiment: biochemical; settings: read-out: % Inh.
[34] = molecular target: BAP1 (Homo sapiens, UniProt Q92560); experiment: biochemical; settings: read-out: Activity (% Control)
[35] = molecular target: CDK12/cyclinK(h) (Homo sapiens, UniProt Q9NYV4); experiment: biochemical
[36] = molecular target: USP4 (Homo sapiens, UniProt Q13107); experiment: biochemical; settings: read-out: Activity (% Control)
[37] = test system: Phosphodiesterase PDE4; settings: 10 µM
[38] = molecular target: TNIK(h) (Homo sapiens, UniProt Q9UKE5); experiment: biochemical
[39] = molecular target: USP6 (Homo sapiens, UniProt P35125); experiment: biochemical; settings: read-out: Activity (% Control)
[40] = molecular target: HIPK1(h) (Homo sapiens, UniProt Q86Z02); experiment: biochemical
[41] = molecular target: ALK6(h) (Homo sapiens, UniProt O00238); experiment: biochemical

With `CC(C)C[C@H](NC(=O)C1(C(F)(F)F)CCCCC1)C(=O)Nc1nnc(Cc2ccc(C#N)cc2)s1` [Compound 22, CC(C)C[C@H](NC(=O)C1(CCCCC1)C(F)(F)F)C(=O)Nc2nnc(Cc3ccc(cc3)C#N)s2] the remaining activity at 10 µM [1] was 94%, the remaining activity at 50 µM [1] was 78% and the inhibition at 10 µM [2] was -3.43%. The inhibition at 10 µM [3] was 6.09%, the inhibition at 10 µM [4] was -14.7% and the inhibition at 10 µM [5] was -15.1%. It also gave an inhibition at 10 µM [6] of 3.19%, an inhibition at 10 µM [7] of -4.53% and an IC50 [8] greater than 30 µM. The inhibition at 10 µM [9] was 12.6%, the inhibition at 10 µM [10] was -1.62% and the inhibition at 10 µM [11] was 3.68%. For the same molecule, the inhibition at 10 µM [12] was -7.17%, the inhibition at 10 µM [13] was -12.3% and the inhibition at 10 µM [14] was 11.9%. For the same molecule, the inhibition at 10 µM [15] was 3.68%, the inhibition at 10 µM [16] was -16.1% and the inhibition at 10 µM [17] was 0.51%. It also gave an inhibition at 10 µM [18] of -2.61%, an inhibition at 10 µM [19] of 7.04% and an inhibition at 10 µM [20] of 0.22%. It also gave an inhibition at 10 µM [21] of 6.32%, an inhibition at 10 µM [22] of 0% and an inhibition at 10 µM [23] of 1.89%. The inhibition at 10 µM [24] was 5%, the inhibition at 10 µM [25] was -9.39% and the inhibition at 10 µM [26] was -2.91%. For the same molecule, the remaining activity at 1 µM [27] was 103%, the remaining activity at 10 µM [27] was 113% and the inhibition at 10 µM [28] was -14.9%. For the same molecule, the inhibition at 10 µM [29] was 7.68%, the inhibition at 10 µM [30] was -2.03% and the inhibition at 10 µM [31] was -10.7%. The inhibition at 10 µM [32] was 0.18%, the inhibition at 10 µM [33] was 11% and the remaining activity at 1 µM [34] was 100%. The remaining activity at 10 µM [34] was 92.4%, the inhibition at 10 µM [35] was 9.09% and the remaining activity at 1 µM [36] was 98%. The remaining activity at 10 µM [36] was 94%, the “% Inh.” value [37] was 1 and the inhibition at 10 µM [38] was 8.51%. For the same molecule, the remaining activity at 1 µM [39] was 108%, the remaining activity at 10 µM [39] was 105% and the inhibition at 10 µM [40] was 11.9%. It also gave an inhibition at 10 µM [41] of 26.8%.

`CC(C)C[C@@H](NC(=O)C1(C(F)(F)F)CCCCC1)C(=O)Nc1nnc(Cc2ccc(C#N)cc2)s1` [Compound 21, N-[(1R)-1-[[5-[(4-Cyanophenyl)methyl]-1,3,4-thiadiazol-2-yl]carbamoyl]-3-methyl-butyl]-1-(trifluoromethyl)cyclohexanecarboxamide] showed a remaining activity at 10 µM [1] of 97%, a remaining activity at 50 µM [1] of 80% and an inhibition at 10 µM [2] of -3.39%. It also gave an inhibition at 10 µM [3] of -2.95%, an inhibition at 10 µM [4] of 5.25% and an inhibition at 10 µM [5] of -0.9%. For the same molecule, the inhibition at 10 µM [6] was -2.03%, the inhibition at 10 µM [7] was -0.84% and the IC50 [8] was greater than 30 µM. It also gave an inhibition at 10 µM [9] of 15.1%, an inhibition at 10 µM [10] of -7.18% and an inhibition at 10 µM [11] of 15.2%. For the same molecule, the inhibition at 10 µM [12] was 0.91%, the inhibition at 10 µM [13] was -12.8% and the inhibition at 10 µM [14] was 15.9%. For the same molecule, the inhibition at 10 µM [15] was 6.52%, the inhibition at 10 µM [16] was -15.7% and the inhibition at 10 µM [17] was -2.38%. It also gave an inhibition at 10 µM [18] of 5.33%, an inhibition at 10 µM [19] of 12.7% and an inhibition at 10 µM [20] of 3.5%. It also gave an inhibition at 10 µM [21] of 29.7%, an inhibition at 10 µM [22] of -16% and an inhibition at 10 µM [23] of 4.95%. It also gave an inhibition at 10 µM [24] of 2%, an inhibition at 10 µM [25] of -17.4% and an inhibition at 10 µM [26] of -2.87%. For the same molecule, the remaining activity at 1 µM [27] was 104%, the remaining activity at 10 µM [27] was 104% and the inhibition at 10 µM [28] was -11.2%. It also gave an inhibition at 10 µM [29] of -0.71%, an inhibition at 10 µM [30] of 1.69% and an inhibition at 10 µM [31] of -5.51%. For the same molecule, the inhibition at 10 µM [32] was -4.14%, the inhibition at 10 µM [33] was 13% and the remaining activity at 1 µM [34] was 111%. For the same molecule, the remaining activity at 10 µM [34] was 106%, the inhibition at 10 µM [35] was -5.64% and the remaining activity at 1 µM [36] was 102%. For the same molecule, the remaining activity at 10 µM [36] was 103%, the “% Inh.” value [37] was 1 and the inhibition at 10 µM [38] was 18.4%. The remaining activity at 1 µM [39] was 106%, the remaining activity at 10 µM [39] was 102% and the inhibition at 10 µM [40] was 8.51%. It also gave an inhibition at 10 µM [41] of 14.6%.
